Test results taken from patent publication US7273846B2, “Selective melanin-concentrating hormone type-1 receptor agonists” (priority 2002, dated 2007).

Chains of the proteins cited; added tags and fusions are not shown. Lines headed by an entry give the natural chain unless they say otherwise; changes in a name come on top.
UniProt Q969V1: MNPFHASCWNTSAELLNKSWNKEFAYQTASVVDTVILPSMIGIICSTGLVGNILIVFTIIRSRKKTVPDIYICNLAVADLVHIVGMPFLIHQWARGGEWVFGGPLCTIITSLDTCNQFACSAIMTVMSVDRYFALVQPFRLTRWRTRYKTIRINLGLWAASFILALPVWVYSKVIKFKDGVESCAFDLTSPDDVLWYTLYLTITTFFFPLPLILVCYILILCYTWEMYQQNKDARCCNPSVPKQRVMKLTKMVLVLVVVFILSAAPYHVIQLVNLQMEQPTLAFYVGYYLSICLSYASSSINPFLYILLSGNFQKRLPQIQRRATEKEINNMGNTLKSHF
UniProt Q99705: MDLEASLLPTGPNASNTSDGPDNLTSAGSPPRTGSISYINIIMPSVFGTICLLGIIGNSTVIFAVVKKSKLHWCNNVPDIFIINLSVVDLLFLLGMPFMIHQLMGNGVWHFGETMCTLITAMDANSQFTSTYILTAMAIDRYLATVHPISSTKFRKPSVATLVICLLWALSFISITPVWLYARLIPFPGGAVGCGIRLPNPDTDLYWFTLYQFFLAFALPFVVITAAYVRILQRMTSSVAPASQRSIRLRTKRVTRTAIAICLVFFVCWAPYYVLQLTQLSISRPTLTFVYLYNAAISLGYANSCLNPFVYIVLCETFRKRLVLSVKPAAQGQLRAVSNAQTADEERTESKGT

How the values were obtained:
[1] = biological target: T1, MCH-2R (Homo sapiens, UniProt Q969V1); test: Radioligand binding assay (SPA), MCH-2R; details: MCH-2R IC50, [125I]-[Phe13,Tyr19]-hMCH SPA, COS or CHO MCH-2R membranes
[2] = biological target: T2, MCH-1R (Homo sapiens, UniProt Q99705); test: Aequorin bioluminescence functional assay, 293AEQ17/MCH-1R cells; assay type: cell-based; set-up: expressed in transfected cells; details: for MCH-1R Activation %: human MCH = 100, activation at 10 μM concentration; for EC50: aequorin, 293AEQ17/MCH-1R cells
Method: (§1) The aequorin bioluminescence assay is a reliable test for identifying G-protein-coupled receptors that couple through the G protein subunit family consisting of Gq and G11. Gq and G11 coupling leads to the activation of phospholipase C, mobilization of intracellular calcium, and activation of protein kinase C.
Stable cell lines expressing either the MCH-1R or the MCH-2R and the aequorin reporter protein were used. The assay was performed using a Luminoskan RT luminometer (Labsystems Inc., Gaithersburg, Md.) controlled by custom software written for a Macintosh PowerPC 6100.
(§2) The cells were harvested, washed once in ECB medium, and resuspended to 500,000 cells/mL. 100 μL of cell suspension (corresponding to 5×10^4 cells) was then injected into the test plate containing the hMCH peptides, and the integrated light emission was recorded over 30 seconds, in 0.5-s units. 20 μL of lysis buffer (0.1% final Triton X-100 concentration) was then injected and the integrated light emission recorded over 10 seconds, in 0.5-s units. The “fractional response” values for each well were calculated by taking the ratio of the integrated response to the initial challenge to the total integrated luminescence including the Triton X-100 lysis response.

[3] = biological target: T2, MCH-1R
[4] = biological target: T1, MCH-2R; test: Aequorin bioluminescence functional assay, 293AEQ17/MCH-2R cells; assay type: cell-based; set-up: expressed in transfected cells; concentration or dose not given beside the values; details: human MCH = 100
Excerpt: as §1
Stable cell lines expressing either the MCH-1R or the MCH-2R and the aequorin reporter protein were used.
as §2

Row | SMILES | IC50 [1] [nM] | Selectivity 2/1 (MCH-2R/MCH-1R EC50 activity ratio) [2] | MCH-1R Activation % [2] [%] | Selectivity 2/1 (MCH-2R/MCH-1R IC50 binding ratio) [3] | MCH-2R Activation % [4] [%] | EC50 [2] [nM]
1 | CCCC[C@@H](NC(C)=O)C(=O)N[C@H]1CSSC[C@@H](C(N)=O)NC(=O)[C@@H]2CCCN2C(=O)[C@H](CCCNC(=N)N)NC(=O)[C@H](Cc2ccc(O)cc2)NC(=O)[C@H](C(C)C)NC(=O)[C@H](CCCNC(=N)N)NC(=O)CNC(=O)[C@H](CC(C)C)NC(=O)[C@H](CCSC)NC1=O [SEQ. ID. NO. 7] | 1460 | 6.5 | 115 | 370 | 69 | –
2 | CSCC[C@@H]1NC(=O)[C@@H](NC(=O)[C@H]2CCCN2C(C)=O)CSSC[C@@H](C(N)=O)NC(=O)[C@@H]2CCCN2C(=O)[C@H](CCCNC(=N)N)NC(=O)[C@H](Cc2ccc(O)cc2)NC(=O)[C@H](C(C)C)NC(=O)[C@H](CCCNC(=N)N)NC(=O)CNC(=O)[C@H](CC(C)C)NC1=O [SEQ. ID. NO. 8] | – | 7 | 120 | 790 | 82 | –
3 | CSCC[C@@H]1NC(=O)[C@@H](NC(=O)[C@@H](CCC(=O)O)NC(C)=O)CSSC[C@@H](C(N)=O)NC(=O)[C@@H]2CCCN2C(=O)[C@H](CCCNC(=N)N)NC(=O)[C@H](Cc2ccc(O)cc2)NC(=O)[C@H](C(C)C)NC(=O)[C@H](CCCNC(=N)N)NC(=O)CNC(=O)[C@H](CC(C)C)NC1=O [SEQ. ID. NO. 12] | – | 11 | 100 | 430 | 20 | –

The remaining lines, values ahead:

Row | IC50 [1] [nM] | Selectivity 2/1 (MCH-2R/MCH-1R EC50 activity ratio) [2] | MCH-1R Activation % [2] [%] | Selectivity 2/1 (MCH-2R/MCH-1R IC50 binding ratio) [3] | MCH-2R Activation % [4] [%] | EC50 [2] [nM] | SMILES
4 | – | 22 | 113 | 700 | 42 | 260 | CSCC[C@@H]1NC(=O)[C@@H](NC(=O)[C@@H](CC(N)=O)NC(C)=O)CSSC[C@@H](C(N)=O)NC(=O)[C@@H]2CCCN2C(=O)[C@H](CCCNC(=N)N)NC(=O)[C@H](Cc2ccc(O)cc2)NC(=O)[C@H](C(C)C)NC(=O)[C@H](CCCNC(=N)N)NC(=O)CNC(=O)[C@H](CC(C)C)NC1=O [SEQ. ID. NO. 10]
5 | – | 38 | 114 | 4700 | 39 | 160 | CSCC[C@@H]1NC(=O)[C@@H](NC(=O)[C@@H](CO)NC(C)=O)CSSC[C@@H](C(N)=O)NC(=O)[C@@H]2CCCN2C(=O)[C@H](CCCNC(=N)N)NC(=O)[C@H](Cc2ccc(O)cc2)NC(=O)[C@H](C(C)C)NC(=O)[C@H](CCCNC(=N)N)NC(=O)CNC(=O)[C@H](CC(C)C)NC1=O [SEQ. ID. NO. 11]
